Earlier results, collected in US5976535A, “Pretargeting protocols for the enhanced localization of cytotoxins to target sites and cytotoxic combinations useful therefore” (NeoRx Corporation, priority 1995, dated 1999).

Details: post-administration; cited from earlier work

In the case of “IL-2: interleukin-2, molecular weight of 15,500 daltons, 133 amino acids”, the circulation half-life is listed as “about 10 minutes”.
